Molecular target: T1, Fructose-1,6-bisphosphatase 1 (Sus scrofa, UniProt P00636)
T1 sequence (P00636 whole entry): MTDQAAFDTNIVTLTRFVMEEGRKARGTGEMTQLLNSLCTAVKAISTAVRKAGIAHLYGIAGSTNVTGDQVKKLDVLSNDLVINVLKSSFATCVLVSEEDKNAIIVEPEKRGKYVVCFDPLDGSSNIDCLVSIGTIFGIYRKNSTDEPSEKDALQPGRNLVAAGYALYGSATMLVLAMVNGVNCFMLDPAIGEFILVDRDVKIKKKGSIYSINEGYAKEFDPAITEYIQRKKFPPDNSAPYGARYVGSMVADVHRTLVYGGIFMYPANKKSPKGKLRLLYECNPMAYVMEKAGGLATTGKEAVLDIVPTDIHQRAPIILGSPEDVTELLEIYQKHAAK
Assay: Inhibition of pig kidney fructose-1,6-bisphosphatase expressed in Escherichia coli BL21 (DE3) assessed as reduction of NADP+ to NADPH by phosphoglucose isomerase/glucose-6-phosphate dehydrogenase coupled assay

CC(=O)C1=C(O)C=C2Oc3c(C(C)=O)c(O)c(C)c(O)c3[C@@]2(C)C1=O [(+)-USNIC ACID]
IC50: 930 µM

Source: ChEMBL document CHEMBL1157047, “Designing inhibitors against fructose 1,6-bisphosphatase: exploring natural products for novel inhibitor scaffolds” (Eur J Med Chem, 2010)
